Data reported in the Kinase Knowledgebase extract (Sharma et al. 2016).
pIC50: −log10 of the molar value.

The chains behind the UniProt entries cited, without tags or fusion partners.
UniProt P00533, whole entry, looked up: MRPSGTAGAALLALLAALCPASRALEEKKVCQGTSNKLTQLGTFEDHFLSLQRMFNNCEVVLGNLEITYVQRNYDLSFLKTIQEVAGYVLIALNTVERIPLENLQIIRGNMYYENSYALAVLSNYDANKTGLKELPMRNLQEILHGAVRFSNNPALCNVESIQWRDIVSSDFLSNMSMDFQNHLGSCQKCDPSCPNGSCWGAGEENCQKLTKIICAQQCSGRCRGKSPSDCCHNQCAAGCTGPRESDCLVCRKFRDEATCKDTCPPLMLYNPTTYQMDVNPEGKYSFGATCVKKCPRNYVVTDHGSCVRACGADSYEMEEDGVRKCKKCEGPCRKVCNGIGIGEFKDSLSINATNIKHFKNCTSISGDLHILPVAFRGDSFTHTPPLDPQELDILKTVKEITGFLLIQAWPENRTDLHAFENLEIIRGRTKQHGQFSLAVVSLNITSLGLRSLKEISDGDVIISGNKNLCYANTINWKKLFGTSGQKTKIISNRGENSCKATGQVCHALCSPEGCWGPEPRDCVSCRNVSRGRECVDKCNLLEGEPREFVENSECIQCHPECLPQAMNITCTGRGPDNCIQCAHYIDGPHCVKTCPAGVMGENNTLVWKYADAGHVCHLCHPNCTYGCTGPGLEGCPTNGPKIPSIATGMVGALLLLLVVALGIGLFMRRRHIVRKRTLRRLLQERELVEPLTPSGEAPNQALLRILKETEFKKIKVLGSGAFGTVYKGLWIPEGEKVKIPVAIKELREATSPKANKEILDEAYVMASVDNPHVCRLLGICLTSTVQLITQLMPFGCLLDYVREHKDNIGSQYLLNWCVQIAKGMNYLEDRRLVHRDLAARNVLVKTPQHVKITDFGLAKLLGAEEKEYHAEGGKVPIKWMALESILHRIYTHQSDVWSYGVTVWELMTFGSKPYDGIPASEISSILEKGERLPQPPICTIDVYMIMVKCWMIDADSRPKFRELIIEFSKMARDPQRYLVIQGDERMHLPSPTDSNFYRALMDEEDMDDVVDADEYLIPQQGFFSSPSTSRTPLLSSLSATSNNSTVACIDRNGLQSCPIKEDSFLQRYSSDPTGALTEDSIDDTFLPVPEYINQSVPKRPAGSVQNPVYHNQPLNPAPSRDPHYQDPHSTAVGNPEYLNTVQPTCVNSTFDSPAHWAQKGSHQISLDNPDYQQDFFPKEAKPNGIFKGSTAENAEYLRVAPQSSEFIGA

Biological target: EGFR (UniProt P00533)

COc1cc2ncnc(Nc3cc(OC)c(OC)c(OC)c3)c2cc1OC
pIC50: ≥ 6.30
